“And” between values parts separate entries of the source, which are not always exact repeats. Identical values can stand only once.

In experiment [1] the test system is CDIIb. The experiment can be described thus: Differentiation marker CDIIb mRNA in HL60Δ404 cells (Northern blot). The settings on record: HL60Δ404, 1×10^−7 M, 24 hours.
Experiment [2] has as its system CAMP. In words: Induction of CAMP mRNA expression in HL60 cells (Northern blot). The settings on record: HL-60; 1,25[OH]2D3 1×10^−7 M or TPA 5 ng/ml; 1, 3 or 5 days; Northern blot.
Experiment [3] has as its system CAMP. In words: Induction of CAMP mRNA in bone marrow cells of an AML patient (QRT-PCR). The conditions noted are these: AML BM cells, 24 h.
In experiment [4] the test system is CAMP. In words: Induction of CAMP mRNA in normal human bone marrow cells (QRT-PCR). The conditions noted are these: two normal human bone marrow cell samples, 1×10^−8 to 1×10^−6M, 72 or 120 h.
Experiment [5] deals with CAMP. In words: Induction of CAMP mRNA in normal human BM-derived macrophages (QRT-PCR). The settings on record: BM Mφ, increasing concentration.
A further experiment concerns hCAP18. The experiment can be described thus: hCAP18 protein expression in U937 cells (Western blot, immunofluorescence, ELISA).
In experiment [6] the test system is CAMP. In words: Induction of CAMP mRNA in colon cancer cell line HT-29 (QRT-PCR). The conditions noted are these: HT-29, 1×10^−7 M, 24 hours. Format: cell-based, human. The source says:
The X-axis represents (CAMP(ng)/18S(ng)), +/−SD.

The test system of experiment [7] is CAMP. The experiment can be described thus: Induction of CAMP mRNA expression in U937 cells (QRT-PCR, RT-PCR, Northern blot). Type of experiment: cell-based, human. The conditions noted are these: for induction of CAMP mRNA (CAMP/18S): U937 positive control, 12 and 24 h, QRT-PCR (FIG. 10A).
Experiment [8] has as its system CDIIb. The experiment can be described thus: Differentiation marker CDIIb mRNA in HL60R cells (Northern blot). The settings on record: 1×10^−7 M, 24 hours.

In the case of `C=C1/C(=C\C=C2/CCC[C@]3(C)[C@@H]([C@H](C)CCCC(C)(C)O)CC[C@@H]23)C[C@@H](O)C[C@@H]1O` [1,25(OH)2D3, 1,25-dihydroxyvitamin D3], the “CDIIb expression in response to treatment” value with CDIIb [1] is listed as “induction of CDIIb”; with CDIIb [8] it was “lack of CDIIb expression”. Moreover, the “induction of CAMP mRNA” value in the experiment on CAMP [2] is on record as “observed only with 1,25(OH)2D3”; in the experiment on CAMP [6], “Induction of CAMP mRNA was observed”. In the experiment with CAMP [3], the “dose dependence of CAMP mRNA induction” value is “dose-responsive manner”. In addition, the “induction of CAMP mRNA over baseline” value in the experiment on CAMP [3] (two concentrations) is 6 fold and 11 fold. Also, the “induction of CAMP mRNA (CAMP/18S)” value in the experiment with CAMP [4] is listed as “Similarly strong induction of CAMP”; in the experiment on CAMP [4] (listed as Vitamin D3) it was “induced CAMP mRNA expression in a dose-dependent manner in every cell type tested”; with CAMP [5] it was “Similarly strong induction of CAMP”; in the experiment on CAMP [7], “strong induction of CAMP”; with CAMP [7] (listed as Vitamin D3) it was “induced CAMP mRNA expression in a dose-dependent manner in every cell type tested”. Moreover, in the experiment on hCAP18 (U937, 1×10^−7 M, 18 h and 36 h, Western blot and immunofluorescent microscopy), the “hCAP18 protein level compared with untreated cells” value is “increased levels of hCAP18 were observed”. For the same molecule, the “hCAP18 in the medium” value in the experiment on hCAP18 (U937, 24 h, ELISA) is “CAMP was secreted into the medium”. Also, the “induction of CAMP mRNA expression” value in the experiment with CAMP [7] (U937, 1×10^−7 M, 24 hours, Northern blot (FIG. 9)) is recorded as “induced expression of CAMP mRNA in all three cell types”.
